Source: patent US8097722B2 (priority 2008, dated 2012)

Target: T1, porcine liver PMPMEase (Sus scrofa, UniProt Q29550)
T1 construct: the supernatant fraction was prepared from 100 g of porcine liver; from tissue; host or cells: porcine liver 40,000×g supernatant
T1 sequence (Q29550 19-566): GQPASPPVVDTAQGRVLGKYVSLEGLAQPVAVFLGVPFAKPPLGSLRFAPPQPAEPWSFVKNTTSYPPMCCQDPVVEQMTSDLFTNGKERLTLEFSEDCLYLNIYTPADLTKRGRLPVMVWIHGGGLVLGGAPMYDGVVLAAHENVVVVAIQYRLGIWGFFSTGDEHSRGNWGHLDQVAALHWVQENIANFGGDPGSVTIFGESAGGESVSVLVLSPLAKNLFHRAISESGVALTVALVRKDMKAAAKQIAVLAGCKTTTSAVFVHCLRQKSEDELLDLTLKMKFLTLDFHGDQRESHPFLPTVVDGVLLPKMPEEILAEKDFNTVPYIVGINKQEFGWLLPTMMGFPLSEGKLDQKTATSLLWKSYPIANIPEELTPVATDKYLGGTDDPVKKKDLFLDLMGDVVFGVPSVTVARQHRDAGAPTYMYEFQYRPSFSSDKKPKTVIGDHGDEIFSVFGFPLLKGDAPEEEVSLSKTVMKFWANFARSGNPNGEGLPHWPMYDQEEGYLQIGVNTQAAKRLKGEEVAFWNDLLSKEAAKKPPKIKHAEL
Experiment: PMPMEase inhibition assay of PMSF, GESF and FESF (IC50)
Format: biochemical

SMILES: O=S(=O)(F)Cc1ccccc1 [Phenylmethylsulfonyl fluoride, phenylmethylsulfonyl fluoride]
- IC50: 16.4 µM
